Reference: patent US4604239A, “Antibiotics” (Eli Lilly and Company, priority 1985, dated 1986)

Tested on: Peptostreptococcus intermedius
Assay: agar-dilution MIC
Format: cell-based
Description: The MIC values were determined by the agar-dilution method, and are recorded in Table 15, which follows.

In the case of A41030 factor C, the MIC (Peptostreptococcus intermedius 1264, Table 14) is reported as 0.5 µg/mL and the MIC (Ps. intermedius 1524, Table 15) is reported as 0.5 µg/mL.
